{"source": "PubChem BioAssay AID1956", "about": "(SRMLSC, 2009)", "note": "This is a selection; strong and weak results do not stand in their true shares. Some tests of the compounds listed are not included; inactive here does not mean inactive elsewhere. Activity calls are given as the source filed them. No stated cut-off is given here; in the data, active means maximum fold increase above about 1.5; inconclusive means no clear call, values can overlap the other calls; inactive means below that; tested in PC3 cells.", "data": [{"experiment": "enhancers of HSV replication in host cells, fold increase, host cell viability (AID 1956)", "details": "HSV replication augmentation in cells; at 0.781 µM, stronger effect = higher value", "values": [{"compound": "COc1cccc(C(=O)NCC2(N3CCCCC3)CCCCC2)c1", "maximum fold increase": "inactive"}, {"compound": "COc1ccc(Br)c(C(=O)NCC2(N3CCCCC3)CCCCC2)c1", "maximum fold increase": "inactive"}, {"compound": "CN(C)c1cccc(C(=O)NCC2(N(C)C)CCCCC2)c1", "maximum fold increase": "inactive"}, {"compound": "O=C(OC1CN2CCC1CC2)C(CO)(c1ccccc1)c1ccccc1", "note": "(stereo unspecified)", "maximum fold increase": "inactive"}, {"compound": "CC(C)N1C(=O)CC2(CCN(CCOC(=O)C(O)(c3ccccc3)c3ccccc3)CC2)C1=O", "maximum fold increase": "inactive"}, {"compound": "CCN(CC)CC(C)C(C)OC(=O)C(O)(c1ccccc1)c1ccccc1", "note": "(stereo unspecified)", "maximum fold increase": "inactive"}, {"compound": "O=C(NCC1(N2CCCCC2)CCCCC1)c1cc([N+](=O)[O-])ccc1Cl", "maximum fold increase": "inactive: 1.02"}, {"compound": "C=CCN1CCN(CCOC(=O)C(O)(c2ccccc2)c2ccccc2)CC1", "maximum fold increase": "inactive"}, {"compound": "CCN1CCCC(OC(=O)C2(O)c3ccccc3C=Cc3ccccc32)C1", "note": "(stereo unspecified)", "maximum fold increase": "inactive"}, {"compound": "Cc1ccccc1C(=O)NCC1(N2CCCCC2)CCCCC1", "maximum fold increase": "inactive"}, {"compound": "CN(C)C1CCCC1OC(=O)C(O)(c1ccccc1)c1ccccc1", "note": "(stereo unspecified)", "maximum fold increase": "inactive"}]}]}
